Reference: US9296734B2 (AMGEN INC., priority 2013, dated 2016)

Sequences of proteins named here, by UniProt entry; tags and fusion partners are left off. Residues count along the entry.
UniProt P56817, 46-501: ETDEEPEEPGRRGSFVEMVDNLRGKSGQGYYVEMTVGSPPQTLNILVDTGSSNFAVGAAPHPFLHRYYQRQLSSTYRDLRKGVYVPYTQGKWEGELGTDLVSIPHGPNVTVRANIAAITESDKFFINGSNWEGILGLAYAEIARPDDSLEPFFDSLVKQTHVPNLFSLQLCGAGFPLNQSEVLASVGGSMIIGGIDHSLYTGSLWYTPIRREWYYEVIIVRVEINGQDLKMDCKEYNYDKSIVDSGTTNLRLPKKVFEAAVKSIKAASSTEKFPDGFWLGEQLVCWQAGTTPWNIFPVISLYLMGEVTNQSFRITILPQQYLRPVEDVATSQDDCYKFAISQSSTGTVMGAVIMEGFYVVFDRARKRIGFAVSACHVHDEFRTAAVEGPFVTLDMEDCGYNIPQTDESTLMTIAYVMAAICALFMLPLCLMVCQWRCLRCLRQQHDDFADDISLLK

Experiments:
[1] = tested on: Aβ40 in conditioned medium of cells stably expressing Amyloid Precursor Protein (APP); test: In vitro BACE cell-based assay (Aβ40 sandwich ELISA); details: Homo sapiens, HEK293, HEK cells; average; read-out: HEK cell assay IC50
Procedure, shortened: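 Aβ40 in supernatants was measured by time-resolved fluorescence sandwich ELISA using pAb40 capture and biotinylated 6E10 detection, with antibody incubations at 4 °C. Stable APP cells were exposed to compounds for 24 h in a 10-point series (top dose 100 or 10 µM, 0.1% DMSO). IC50 was fitted from the concentration-response.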

[2] = molecular target: Beta Secretase enzyme (BACE) (Homo sapiens (Human), UniProt P56817); test: In vitro enzymatic BACE FRET assay; format: biochemical; details: average; read-out: BACE 1 FRET assay IC50
Procedure, shortened: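 A quenched fluorophore-peptide spanning the BACE cleavage site served as substrate at 50 nM, with one-hour incubation in pH 4.2 acetate buffer containing 100 uM genapol and 10% DMSO final. Fluorescence was measured after quenching with Tris to neutral pH.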

Structure (SMILES) | IC50 [1] [nM] | IC50 [2] [nM]
COc1ccc(C(=O)Nc2cc(C)c(F)c([C@]3(CF)C[C@@H](C(F)(F)F)OC(N)=N3)c2)nc1 [Example 229, N-(3-((4S,6S)-2-amino-4-(fluoromethyl)-6-(trifluoromethyl)-5,6-dihydro-4H-1,3-oxazin-4-yl)-4-fluoro-5-methylphenyl)-5-methoxypicolinamide] | 34 | 44
C[C@@]1(c2cc(NC(=O)c3ccc(Cl)cn3)cc(F)c2Cl)C[C@@H](C(F)(F)F)OC(N)=N1 [Example 236, N-(3-((4S,6S)-2-amino-4-methyl-6-(trifluoromethyl)-5,6-dihydro-4H-1,3-oxazin-4-yl)-4-chloro-5-fluorophenyl)-5-chloropicolinamide] | 39 | 11
COc1cnc(C(=O)Nc2cc(F)c(Cl)c([C@]3(C)C[C@@H](C(F)(F)F)OC(N)=N3)c2)cn1 [Example 237, N-(3-((4S,6S)-2-amino-4-methyl-6-(trifluoromethyl)-5,6-dihydro-4H-1,3-oxazin-4-yl)-4-chloro-5-fluorophenyl)-5-methoxypyrazine-2-carboxamide] | 13 | 29

Other lines, results leading:

IC50 [1] [nM] | IC50 [2] [nM] | Structure (SMILES)
33 | 73 | Cc1cc(NC(=O)c2ccc(C(F)F)cn2)cc([C@]2(CF)C[C@@H](C(F)(F)F)OC(N)=N2)c1F [Example 221, N-(3-((4S,6S)-2-amino-4-(fluoromethyl)-6-(trifluoromethyl)-5,6-dihydro-4H-1,3-oxazin-4-yl)-4-fluoro-5-methylphenyl)-5-(difluoromethyl)picolinamide]
29 | 57 | Cc1cc(NC(=O)c2ccc(F)cn2)cc([C@]2(CF)C[C@@H](C(F)(F)F)OC(N)=N2)c1F [Example 223, N-(3-((4S,6S)-2-amino-4-(fluoromethyl)-6-(trifluoromethyl)-5,6-dihydro-4H-1,3-oxazin-4-yl)-4-fluoro-5-methylphenyl)-5-fluoropicolinamide]
78 | 29 | NC1=N[C@](CF)(c2cc(NC(=O)c3ncc(Cl)cc3F)cc(F)c2F)C[C@@H](C(F)(F)F)O1 [Example 233, N-(3-((4S,6S)-2-amino-4-(fluoromethyl)-6-(trifluoromethyl)-5,6-dihydro-4H-1,3-oxazin-4-yl)-4,5-difluorophenyl)-5-chloro-3-fluoropicolinamide]
